# Measurements reported in paper PMC11855866, “Combining Sulfonylureas with Anticancer Drugs: Evidence of Synergistic Efficacy with Doxorubicin In Vitro and In Vivo” (International Journal of Molecular Sciences, 2025).
# Assays:
# U-87MG cells = assay: MTT cytotoxicity / synergy assay, 72 h, U-87MG; conditions: Homo sapiens
# HuH7 cells = assay: MTT cytotoxicity / synergy assay, 72 h, HuH7; conditions: Homo sapiens; for viability at 0.163 µM: Huh-7, read-out: HuH7 cell viability, DOXO 0.163 µM
# HepG2 cells = assay: MTT cytotoxicity / synergy assay, 72 h, HepG2; conditions: Homo sapiens
# MCF-7 cells = assay: MTT cytotoxicity / synergy assay, 72 h, MCF-7; format: cell-based; conditions: Homo sapiens; for viability at 0.45 µM: MCF7, read-out: MCF-7 cell viability, DOXO 0.450 µM
# Description: Stock solutions of the tested compounds were first prepared in DMSO at 200-fold the intended final concentration. […] The cells were treated for 72 h under the same conditions.
# Following treatment, 25 μL of MTT solution was added to each well, and the plates were incubated for 2 h at 37 °C. […] IC₅₀ values, indicating the concentration required to reduce cell viability by 50% compared to untreated controls (set as 100% viability), were calculated using GraphPad Prism 9 software (GraphPad Software, San Diego, CA, USA). All data from this preliminary cytotoxic assay were analyzed by ANOVA followed by Tukey’s post hoc test for multiple comparisons, with significance set at p < 0.05. A similar statistical approach was used for the rest of the experimental work presented in this study.
# [1] = read-out: U-87MG cell viability
# [2] = HepG2, read-out: HepG2 cell viability
# [3] = MCF7, read-out: MCF-7 cell viability
smiles,measurement,setting,value
"COc1cccc2c1C(=O)c1c(O)c3c(c(O)c1C2=O)C[C@@](O)(C(=O)CO)C[C@@H]3O[C@H]1C[C@H](N)[C@H](O)[C@H](C)O1 [DOXO, Doxorubicin]",viability at 0.26 µM,U-87MG cells; [1],75.2 ± 1%
same,viability at 0.52 µM,U-87MG cells; [1],73.9 ± 0.8%
same,viability at 0.26 µM,"U-87MG cells; read-out: U-87MG cell viability, DOXO 0.260 µM, CHLO 0 µM",70.6 ± 0.6%
same,viability at 0.26 µM,"U-87MG cells; read-out: U-87MG cell viability, DOXO 0.260 µM, GLIM 0 µM",73.3 ± 0.3%
same,viability at 1.04 µM,"U-87MG cells; read-out: U-87MG cell viability, DOXO 1.040 µM (3rd column), CHLO 0 µM",49.6 ± 0.7%
same,viability at 1.04 µM,"U-87MG cells; read-out: U-87MG cell viability, DOXO 1.040 µM (3rd column), GLIQ 0 µM",50.2 ± 0.5%
same,viability at 1.04 µM,"U-87MG cells; read-out: U-87MG cell viability, DOXO 1.040 µM, GLIM 0 µM",50.1 ± 0.7%
same,viability at […],"HuH7 cells; Huh-7, read-out: HuH7 cell viability",95.3 ± 0.9%
same,viability at 0.163 µM,HuH7 cells; CHLO 0 µM,94.3 ± 1.3%
same,viability at 0.163 µM,HuH7 cells; GLIM 0 µM,96.3 ± 0.5%
same,viability at 0.163 µM,HuH7 cells; GLIQ 0 µM,94.8 ± 0.7%
same,viability at 0.18 µM,HepG2 cells; [2],80.1 ± 1.4%
same,viability at 0.36 µM,HepG2 cells; [2],70.1 ± 0.5%
same,viability at 0.72 µM,HepG2 cells; [2],50.1 ± 1.7%
same,viability at 0.18 µM,"HepG2 cells; HepG2, read-out: HepG2 cell viability, DOXO 0.180 µM, CHLO 0 µM",79.1 ± 0.8%
same,viability at 0.18 µM,"HepG2 cells; HepG2, read-out: HepG2 cell viability, DOXO 0.180 µM, GLIQ 0 µM",81.1 ± 1%
same,viability at 0.36 µM,"HepG2 cells; HepG2, read-out: HepG2 cell viability, DOXO 0.360 µM, GLIM 0 µM",69.2 ± 1.6%
same,viability at 0.72 µM,"HepG2 cells; HepG2, read-out: HepG2 cell viability, DOXO 0.720 µM, CHLO 0 µM",50.6 ± 1.3%
same,viability at 0.72 µM,"HepG2 cells; HepG2, read-out: HepG2 cell viability, DOXO 0.720 µM, GLIQ 0 µM",51.6 ± 0.4%
same,viability at 0.113 µM,MCF-7 cells; [3],77 ± 1.2%
same,viability at 0.225 µM,MCF-7 cells; [3],75.7 ± 1%
same,viability at 0.113 µM,"MCF-7 cells; MCF7, read-out: MCF-7 cell viability, DOXO 0.113 µM, GLIM 0 µM",70.2 ± 0.5%
same,viability at 0.113 µM,"MCF-7 cells; MCF7, read-out: MCF-7 cell viability, DOXO 0.113 µM, GLIQ 0 µM",74.2 ± 1.6%
same,viability at 0.225 µM,"MCF-7 cells; MCF7, read-out: MCF-7 cell viability, DOXO 0.225 µM, GLIM 0 µM",71.2 ± 0.7%
same,viability at 0.225 µM,"MCF-7 cells; MCF7, read-out: MCF-7 cell viability, DOXO 0.225 µM, GLIQ 0 µM",73.9 ± 1%
same,viability at 0.45 µM,MCF-7 cells; GLIM 0 µM,50.8 ± 0.4%
same,viability at 0.45 µM,MCF-7 cells; GLIQ 0 µM,50.1 ± 1%

# Read-outs that look alike come from different tables or passages of the source.
